Results on three compounds are retold here after ChEMBL document CHEMBL1125539 (J Med Chem, 1992).

Each structure is given as a SMILES string.

Experiment [1] is described as follows: Growth inhibition of aerobic chinese hamster ovary fibroblast AA8 cell line using an exposure time of 18 hours. The settings on record: cho-aa8.
Experiment [2] can be described thus: Growth inhibition of aerobic chinese hamster ovary fibroblast UV4 cells using an exposure time of 18 hours.
Experiment [3] in a line: Hypoxic selectivity was measured as product of concentration and exposure time needed to reduce cell survival to 10% of control using UV4 cells at 10e6 /mL in the clonogenic assay.

On to `O=[N+]([O-])c1ccc(N(CCCl)CCCl)c([N+](=O)[O-])c1`, for which the IC50 in experiment [1] was above 50 µM; in experiment [2], 44 µM.

As for `O=[N+]([O-])c1ccc(N(CCCl)CCCl)cc1`, in experiment [2], the IC50 was found to be 17 µM. The compound further returned a CT10 in experiment [3] of 760 µM/h.

Turning to `CN(C)C(=O)c1cccc(N(CCCl)CCCl)c1`, the figures for the IC50 in experiment [1] and in experiment [2] were 12 µM and 1.2 µM, respectively.
